According to patent US20060079453A1, “Hla binding peptides and their uses” (priority 2002, published 2006):
Where two headings read alike, the source gives them in different places.

Protein sequences, listed by entry. Tags and fused reporters are not part of them. Residues count along the entry.
UniProt P79483, 30-266: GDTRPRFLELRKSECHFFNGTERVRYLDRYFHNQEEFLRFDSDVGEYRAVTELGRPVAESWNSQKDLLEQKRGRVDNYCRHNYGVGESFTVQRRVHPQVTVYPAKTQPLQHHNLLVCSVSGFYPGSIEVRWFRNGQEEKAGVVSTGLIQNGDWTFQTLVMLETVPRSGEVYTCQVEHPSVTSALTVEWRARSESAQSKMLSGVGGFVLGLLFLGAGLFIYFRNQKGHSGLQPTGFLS

Legend:
[1] = biological target: HLA-A*2902 (Homo sapiens, UniProt P04439, A270S/D101N/D185E/E176V/E277Q/E87Q/F33T/G231S/H175R/I121M/I218V/I322F/K168Q/L300P/L318F/M331R/P208A/P217A/Q86L/T323A/T345S/V100A/V358M); assay: MHC molecular binding / Capture assay, IC50: A*2902
[2] = biological target: HLA-DR DRB1*0701 (DR7) (Homo sapiens, UniProt P01903+P01911, A100R/A102G/A103Q/D57E/D86V/E43K/F76Y/K127E/L162R/M171V/P40G/Q125H/Q99D/R33Q/R42Y/R54Q/S133A/S66F/T210M/V115G/Y107V/Y59L/Y89S); assay: biochemical; assay type: binding
[3] = biological target: HLA-DR DRB1*0901 (DR9) (Homo sapiens, UniProt P01903+P01911, A100R/A103E/D57H/D86V/F55Y/F60I/F76Y/I96F/K127E/L162R/M171V/P40D/Q125H/Q99R/R33Q/R42F/S133A/S66N/T210M/V115G/W38K/Y107V/Y59G/Y89S); assay: biochemical; assay type: binding
[4] = biological target: HLA-DR DRB4*0101 (DR53) (Homo sapiens, UniProt P01903+P13762, G164S); assay: biochemical; assay type: binding
[5] = biological target: HLA-DR DRB1*1101 (DR11) (Homo sapiens, UniProt P01903+P01911, A100R/A169T/A87E/I96F/K41T/L162R/M171V/P40S/Q125H/Q178H/Q39Y/Q99D/R42S/S66Y/T262R/V115G/W38E); assay: biochemical; assay type: binding
[6] = biological target: HLA-DR DRB1*0301 (DR3) (Homo sapiens, UniProt P01903+P01911, A100K/A102G/A103R/A169T/F55Y/I96L/K41T/L162R/M171V/P40S/Q125H/Q178H/Q39Y/R42S/S66N/T106N/T262R/W38E/Y61H); assay: biochemical; assay type: binding
[7] = biological target: HLA-DR DRB3*0101 (DR52) (Homo sapiens, UniProt P01903+P79483); assay: biochemical; assay type: binding
[8] = biological target: HLA-DR DRB1*0802 (DR8) (Homo sapiens, UniProt P01903+P01911, A100R/A103L/A169T/F76Y/H45Y/I96F/K41T/L162R/M171V/P40S/Q125H/Q178H/Q39Y/Q99D/R218S/R42G/S66Y/V115G/W38E); assay: biochemical; assay type: binding; settings: read-out: DRB1 *0802

## CC(C)C[C@H](NC(=O)[C@H](CCC(=O)O)NC(=O)[C@@H](NC(=O)[C@H](C)N)[C@@H](C)O)C(=O)N[C@@H](Cc1c[nH]cn1)C(=O)N1CCC[C@H]1C(=O)N[C@@H](CCC(=O)O)C(=O)N[C@@H](Cc1ccc(O)cc1)C(=O)N[C@@H](Cc1ccc(O)cc1)C(=O)O
[1]
  IC50: 6.61 µM

## CC[C@H](C)[C@H](NC(=O)[C@H](CC(N)=O)NC(=O)[C@H](CCC(=O)O)NC(=O)[C@H](CC(N)=O)NC(=O)[C@H](CC(C)C)NC(=O)[C@H](CO)NC(=O)[C@H](CS)NC(=O)[C@H](Cc1c[nH]cn1)NC(=O)[C@@H](N)CCC(=O)O)C(=O)N[C@H](C(=O)N[C@H](C(=O)N1CCC[C@H]1C(=O)N[C@@H](CC(=O)O)C(=O)N[C@H](C(=O)N[C@@H](CCCCN)C(=O)O)[C@@H](C)O)C(C)C)[C@@H](C)O
[2]; DRB1 *0701
  IC50: 32.4 µM
[3]; DRB1 *0901
  IC50: > 78.9 µM
[4]; DRB4 *0101
  IC50: 52.9 µM
[5]; DRB1 *1101
  IC50: > 1110 µM

## CC(C)C[C@H](NC(=O)[C@H](CO)NC(=O)[C@H](CC(N)=O)NC(=O)[C@H](C)NC(=O)[C@H](Cc1ccccc1)NC(=O)[C@@H](NC(=O)[C@H](CO)NC(=O)[C@H](CCCNC(=N)N)NC(=O)[C@H](CC(C)C)NC(=O)[C@@H](N)Cc1ccccc1)C(C)C)C(=O)N[C@H](C(=O)N[C@@H](Cc1ccc(O)cc1)C(=O)NCC(=O)N[C@@H](C)C(=O)N[C@@H](CO)C(=O)O)C(C)C
[6]
  IC50: 15.2 µM

## CC[C@H](C)[C@H](NC(=O)[C@@H](NC(=O)[C@@H]1CCCN1C(=O)[C@@H](N)Cc1ccccc1)[C@@H](C)O)C(=O)N1CCC[C@H]1C(=O)N[C@@H](CC(C)C)C(=O)N[C@@H](CO)C(=O)N[C@@H](CCCNC(=N)N)C(=O)N[C@@H](CC(C)C)C(=O)N[C@@H](Cc1ccccc1)C(=O)N[C@@H](CC(=O)O)C(=O)N[C@@H](CC(N)=O)C(=O)N[C@@H](C)C(=O)N[C@@H](CO)C(=O)N[C@@H](CC(C)C)C(=O)O
[5]; DRB1 *1101
  IC50: 30.7 µM
[6]
  IC50: 115 µM

## CC(C)[C@H](NC(=O)[C@H](CCCCN)NC(=O)[C@H](CO)NC(=O)[C@H](Cc1ccc(O)cc1)NC(=O)[C@@H](N)Cc1ccccc1)C(=O)N[C@@H](CCCNC(=N)N)C(=O)N[C@@H](CCCCN)C(=O)N[C@@H](Cc1ccc(O)cc1)C(=O)N[C@@H](CCCNC(=N)N)C(=O)N[C@@H](Cc1ccccc1)C(=O)O
[1]
  IC50: 3.04 µM

## CC[C@H](C)[C@H](NC(=O)[C@H](CCC(=O)O)NC(=O)[C@H](Cc1c[nH]cn1)NC(=O)[C@@H](NC(=O)[C@@H](NC(=O)[C@H](C)NC(=O)[C@H](C)NC(=O)CN)C(C)C)C(C)C)C(=O)N[C@H](C(=O)N[C@@H](CCCNC(=N)N)C(=O)N[C@@H](CO)C(=O)N[C@@H](Cc1ccccc1)C(=O)NCC(=O)N[C@H](C(=O)N[C@@H](CC(C)C)C(=O)O)[C@@H](C)O)C(C)C
[4]; DRB4 *0101
  IC50: 0.089 µM

## CC(C)C[C@H](NC(=O)[C@H](C)NC(=O)[C@H](CCCNC(=N)N)NC(=O)[C@H](C)NC(=O)[C@H](C)NC(=O)CNC(=O)CNC(=O)[C@H](CC(C)C)NC(=O)[C@@H]1CCCN1C(=O)[C@H](C)NC(=O)CN)C(=O)N[C@@H](C)C(=O)N[C@@H](Cc1c[nH]cn1)C(=O)NCC(=O)N[C@H](C(=O)O)C(C)C
[4]; DRB4 *0101
  IC50: 3.96 µM

## CC(C)C[C@H](NC(=O)[C@@H](NC(=O)[C@@H]1CCCN1C(=O)[C@@H](NC(=O)[C@H](CC(=O)O)NC(=O)[C@@H](NC(=O)[C@@H](N)Cc1c[nH]cn1)[C@@H](C)O)[C@@H](C)O)[C@@H](C)O)C(=O)N[C@@H](Cc1c[nH]cn1)C(=O)N[C@@H](CCC(=O)O)C(=O)N[C@@H](Cc1ccc(O)cc1)C(=O)O
[1]
  IC50: 1.51 µM

## CC(C)C[C@H](NC(=O)[C@H](C)NC(=O)[C@H](CC(C)C)NC(=O)[C@@H](N)CC(N)=O)C(=O)N[C@@H](CC(C)C)C(=O)N[C@@H](Cc1ccc(O)cc1)C(=O)NCC(=O)N[C@@H](CCC(=O)O)C(=O)N[C@@H](Cc1ccc(O)cc1)C(=O)O
[1]; Binding affinity to A*2902 (expressed as an IC50)
  IC50: 0.138 µM

## CC[C@H](C)[C@H](NC(=O)[C@@H](N)CCC(N)=O)C(=O)N[C@@H](Cc1ccc(O)cc1)C(=O)N[C@H](C(=O)N[C@@H](C)C(=O)N[C@@H](C)C(=O)N[C@@H](Cc1ccccc1)C(=O)N[C@H](C(=O)N[C@H](C(=O)N[C@@H](CCC(N)=O)C(=O)N[C@@H](C)C(=O)N[C@@H](C)C(=O)N[C@@H](C)C(=O)N[C@@H](CCC(=O)O)C(=O)N[C@H](C(=O)O)[C@@H](C)O)C(C)C)[C@@H](C)O)C(C)C
[7]
  IC50: 1.32 µM

## CC(C)C[C@H](NC(=O)[C@H](CCCNC(=N)N)NC(=O)CNC(=O)[C@H](CC(N)=O)NC(=O)[C@H](CC(C)C)NC(=O)[C@H](CCC(N)=O)NC(=O)[C@H](Cc1c[nH]c2ccccc12)NC(=O)[C@H](CC(C)C)NC(=O)[C@H](CC(C)C)NC(=O)[C@H](CCCCN)NC(=O)[C@H](CCC(N)=O)NC(=O)[C@H](CO)NC(=O)[C@@H](N)CCC(N)=O)C(=O)N[C@@H](CCC(=O)O)C(=O)N[C@@H](Cc1ccc(O)cc1)C(=O)O
[2]; DRB1 *0701
  IC50: 1.17 µM
[4]; DRB4 *0101
  IC50: 0.166 µM

## CC(C)C[C@H](NC(=O)[C@H](CC(=O)O)NC(=O)[C@H](C)NC(=O)[C@H](Cc1ccccc1)NC(=O)[C@H](C)NC(=O)[C@H](Cc1ccccc1)NC(=O)[C@H](CC(=O)O)NC(=O)[C@H](Cc1ccc(O)cc1)NC(=O)[C@@H](NC(=O)[C@H](CCC(=O)O)NC(=O)[C@@H](N)CO)C(C)C)C(=O)N[C@H](C(=O)N[C@H](C(=O)N[C@H](C(=O)N[C@@H](Cc1ccc(O)cc1)C(=O)O)C(C)C)C(C)C)[C@@H](C)O
[4]; DRB4 *0101
  IC50: 1.32 µM

## CC[C@H](C)[C@H](NC(=O)[C@H](Cc1c[nH]c2ccccc12)NC(=O)[C@@H](NC(=O)[C@@H](NC(=O)[C@H](CO)NC(=O)[C@H](CC(C)C)NC(=O)[C@@H](N)[C@@H](C)O)C(C)C)[C@@H](C)O)C(=O)NCC(=O)N[C@@H](C)C(=O)N[C@@H](C)C(=O)N1CCC[C@H]1C(=O)N[C@@H](CC(C)C)C(=O)N[C@H](C(=O)N[C@@H](CC(C)C)C(=O)N[C@@H](CO)C(=O)O)[C@@H](C)CC
[4]; DRB4 *0101
  IC50: 3.51 µM

## CC(C)C[C@H](NC(=O)[C@H](CCCNC(=N)N)NC(=O)[C@@H]1CCCN1C(=O)CNC(=O)[C@H](CCCNC(=N)N)NC(=O)[C@H](CCCNC(=N)N)NC(=O)[C@@H]1CCCN1C(=O)[C@H](CC(C)C)NC(=O)[C@H](C)NC(=O)[C@H](Cc1ccc(O)cc1)NC(=O)[C@@H](NC(=O)CNC(=O)CNC(=O)[C@@H](N)C(C)C)C(C)C)C(=O)NCC(=O)N[C@H](C(=O)O)C(C)C
[4]
  IC50: 26.1 µM

## CSCC[C@H](NC(=O)[C@H](CCCNC(=N)N)NC(=O)[C@H](CCCCN)NC(=O)[C@H](Cc1c[nH]c2ccccc12)NC(=O)[C@H](C)NC(=O)[C@H](Cc1ccc(O)cc1)NC(=O)[C@H](Cc1ccccc1)NC(=O)[C@H](CC(N)=O)NC(=O)[C@@H](N)C(C)C)C(=O)N[C@@H](CCC(=O)O)C(=O)N[C@H](C(=O)NCC(=O)N[C@@H](CCC(N)=O)C(=O)N[C@@H](CCC(N)=O)C(=O)N[C@@H](C)C(=O)O)C(C)C
[7]
  IC50: 22.5 µM

## ALLKNYGLLYCFRIW
[4]; read-out: DRB4 *0101
  IC50: 1.23 µM

## EFAFKDLFVVYRDSI
[4]; read-out: DRB4 *0101
  IC50: 9.07 µM

## EYRHYCYSLY
[1]; read-out: A*2902 binding affinity (IC50)
  IC50: 0.198 µM

## HSLFHPEDTGQVFQV
[4]; read-out: DRB4 *0101
  IC50: 11.5 µM

## LGFLQRSSNTQTQK
[6]; read-out: DRB1 *0301
  IC50: 26.5 µM

## LGFLQRSSNTQTQKL
[4]; read-out: DRB4 *0101
  IC50: 1.04 µM

## LREYILDLHPEPTDL
[4]; read-out: DRB4 *0101
  IC50: 2.04 µM

## QKEDAAVTIYEMLQN
[2]; read-out: DRB1 *0701
  IC50: 45.5 µM
[8]
  IC50: > 144 µM
[5]; read-out: DRB1 *1101
  IC50: > 408 µM
[6]; read-out: DRB1 *0301
  IC50: > 157 µM

## QLQQFQKEDAAVTLY
[8]
  IC50: 4.86 µM
[6]; read-out: DRB1 *0301
  IC50: 17.4 µM

## REETQQKSNLELLR
[2]; read-out: DRB1 *0701
  IC50: 51.2 µM
[6]; read-out: DRB1 *0301
  IC50: 91.1 µM

## SDSNVYDLLKNLEEG
[2]; read-out: DRB1 *0701
  IC50: 182 µM
[3]; read-out: DRB1 *0901
  IC50: > 59.5 µM
[8]
  IC50: > 33.3 µM
[6]; read-out: DRB1 *0301
  IC50: 55 µM

## STGWNETIVENLLAN
[2]; read-out: DRB1 *0701
  IC50: 3.96 µM
[3]; read-out: DRB1 *0901
  IC50: > 77.3 µM
[8]
  IC50: > 144 µM
[6]; read-out: DRB1 *0301
  IC50: > 157 µM

## TVVYREGNPFGICKL
[4]; read-out: DRB4 *0101
  IC50: 16.2 µM

## VLERYLLEAYEAENI
[6]; read-out: DRB1 *0301
  IC50: 59 µM

## VRTLQQLLMQTCTIV
[6]; read-out: DRB1 *0301
  IC50: 32.4 µM

## VYDFVFADLRGVYRD
[4]; read-out: DRB4 *0101
  IC50: 4.39 µM
[5]; read-out: DRB1 *1101
  IC50: 12.2 µM
